The source of these data is patent US20060079453A1, “Hla binding peptides and their uses” (priority 2002, published 2006).

Assay in all cases: biochemical
What all share (type): binding

The target of test [1] is HLA-B*1801 (Homo sapiens, UniProt P01889, A329T/A93T/A95T/C349S/D201E/D54G/D98Y/E176V/E187T/E204Q/E69T/K202T/Q94N/R155S/R180L/S121R/V306I/Y140S/Y195H/Y33H/Y91S).
Test [2] deals with HLA-B*4001 (Homo sapiens, UniProt P01889, A65T/A93T/A95T/D138N/D98Y/E176V/E69K/N87E/Q56L/Q94N/R180L/S121R/S35A/S48T/T167S/V36M/W171L/Y33H/Y91S).
The target in test [3] is HLA-B*4002 (Homo sapiens, UniProt P01889, A65T/A93T/A95T/D138N/D201E/D98Y/E176V/E204Q/E69K/K202T/N87E/Q56L/Q94N/R180L/S48T/Y33H/Y91S).
Test [4] addresses HLA-B*4402 (Homo sapiens, UniProt P01889, A223V/A65T/A93T/A95T/D201E/D98Y/E176V/E187L/E204Q/E69K/G107R/H137Y/K202T/L105A/L119I/N104T/N87E/Q56L/Q94N/R106L/R155S/R180D/S101N/S121R/S35A/S48T/T118I/V36M/W191S/Y140D/Y91S).
The target of test [5] is HLA-B*4403 (Homo sapiens, UniProt P01889, A223V/A65T/A93T/A95T/D201E/D98Y/E176V/E187L/E204Q/E69K/G107R/H137Y/K202T/L105A/L119I/N104T/N87E/Q56L/Q94N/R106L/R155S/R180L/S101N/S121R/S35A/S48T/T118I/V36M/W191S/Y140D/Y91S).
The target of test [6] is HLA-B*4501 (Homo sapiens, UniProt P01889, A329T/A65T/A93T/A95T/C349S/D138N/D201E/D98Y/E176V/E187L/E204Q/E69K/H137Y/K202T/L119W/N87E/Q56L/Q94N/R155S/R180D/S121R/S35A/S48T/V127L/V306I/V36M/W191S/Y140L/Y33H/Y91S).

As for `CC[C@H](C)[C@H](NC(=O)[C@H](CO)NC(=O)[C@@H](NC(=O)[C@H](CC(C)C)NC(=O)[C@@H]1CCCN1C(=O)[C@H](CO)NC(=O)[C@H](C)NC(=O)[C@H](CCCNC(=N)N)NC(=O)[C@H](CCC(N)=O)NC(=O)[C@H](CCC(=O)O)NC(=O)[C@H](C)N)[C@@H](C)O)C(=O)O`, the IC50 – broadly, the midpoint of a concentration-inhibition curve – in test [1] is 467 nM; in test [2], 19 nM; in test [3], 58 nM; in test [4], 5.1 nM; in test [5] it was 2.5 nM; in test [6] it was 11 nM.
With `CC(C)C[C@H](NC(=O)[C@H](Cc1ccc(O)cc1)NC(=O)[C@@H](NC(=O)[C@H](C)NC(=O)[C@H](CC(=O)O)NC(=O)[C@H](CCC(N)=O)NC(=O)[C@@H](NC(=O)[C@H](CCC(=O)O)NC(=O)[C@@H]1CCCN1C(=O)[C@H](CCC(=O)O)NC(=O)[C@@H](N)CS)[C@@H](C)O)[C@@H](C)O)C(=O)O`, the IC50 in test [1] came out at 831 nM; in test [2], 311 nM; in test [3] it was 3390 nM; in test [4] it was 398 nM; in test [5], 807 nM.
As to `CSCC[C@H](NC(=O)[C@@H](NC(=O)[C@H](Cc1ccc(O)cc1)NC(=O)[C@H](C)NC(=O)[C@H](CCC(=O)O)NC(=O)[C@@H](N)CC(=O)O)C(C)C)C(=O)N[C@@H](C)C(=O)NCC(=O)N[C@H](C(=O)O)C(C)C`, the half-inhibitory concentration (IC50) in test [3] was determined as 1240 nM; in test [4], 8010 nM; in test [5], 138 nM; in test [6] it was 161 nM.
Turning to `CSCC[C@H](N)C(=O)N[C@@H](CCC(=O)O)C(=O)N[C@@H](CC(C)C)C(=O)N[C@@H](C)C(=O)N[C@@H](C)C(=O)N[C@@H](CC(C)C)C(=O)N[C@@H](CS)C(=O)N[C@@H](CCCNC(=N)N)C(=O)N[C@@H](Cc1c[nH]c2ccccc12)C(=O)NCC(=O)N[C@@H](CC(C)C)C(=O)O`, the IC50 came to 6.4 nM in test [1]; 24 nM in test [2]; 30 nM in test [3]; 17 nM in test [4]; 0.92 nM in test [5].
On to `CC(C)C[C@H](NC(=O)[C@H](C)NC(=O)[C@H](CCC(=O)O)NC(=O)[C@@H](N)CC(N)=O)C(=O)N[C@@H](CCC(=O)O)C(=O)N[C@@H](CC(C)C)C(=O)N[C@@H](CCCCN)C(=O)N[C@@H](CC(=O)O)C(=O)N[C@@H](C)C(=O)O`, for which the half-inhibitory concentration (IC50) in test [2] is 3890 nM; in test [4], 4270 nM; in test [5], 1580 nM.
For `CC(C)C[C@H](NC(=O)[C@@H]1CCCN1C(=O)[C@H](CO)NC(=O)[C@H](C)NC(=O)[C@@H]1CCCN1C(=O)CNC(=O)[C@H](CC(C)C)NC(=O)[C@H](CC(=O)O)NC(=O)[C@H](CCC(=O)O)NC(=O)[C@@H](N)CC(N)=O)C(=O)O`, the half-inhibitory concentration (IC50) in test [1] came to 107 nM; in test [2] it was 281 nM; in test [3] it was 150 nM; in test [4], 40 nM; in test [5], 6 nM; in test [6] it was 231 nM.
Regarding `CC[C@H](C)[C@H](NC(=O)[C@H](CCC(=O)O)NC(=O)[C@@H]1CCCN1)C(=O)N[C@@H](CCC(N)=O)C(=O)N[C@@H](CC(N)=O)C(=O)N[C@H](C(=O)N[C@H](C(=O)N[C@@H](Cc1ccc(O)cc1)C(=O)N[C@@H](CC(C)C)C(=O)O)[C@@H](C)O)[C@@H](C)O`, the half-maximal inhibitory concentration (IC50) in test [1] came to 923 nM; in test [2], 138 nM; in test [4], 16800 nM; in test [5] it was 231 nM; in test [6], 1820 nM.
As for `CSCC[C@H](NC(=O)[C@H](CC(=O)O)NC(=O)[C@H](CC(C)C)NC(=O)[C@H](Cc1c[nH]cn1)NC(=O)[C@@H](NC(=O)[C@H](CCC(=O)O)NC(=O)[C@@H]1CCCN1)[C@@H](C)O)C(=O)N[C@@H](CC(C)C)C(=O)N[C@@H](CCCNC(=N)N)C(=O)N[C@@H](Cc1c[nH]cn1)C(=O)N[C@@H](CC(C)C)C(=O)O`, the IC50 came out at 1320 nM in test [1]; 700 nM in test [2]; 11500 nM in test [4]; 70 nM in test [5]; 4330 nM in test [6].
As to `CSCC[C@H](NC(=O)[C@H](CCCNC(=N)N)NC(=O)[C@@H]1CCCN1C(=O)CNC(=O)[C@H](CCC(=O)O)NC(=O)[C@H](CCC(=O)O)NC(=O)[C@H](CCC(=O)O)NC(=O)[C@@H](N)CCC(N)=O)C(=O)N[C@@H](Cc1ccccc1)C(=O)O`, the 50% inhibitory concentration (IC50) in test [3] was found to be 7750 nM; in test [4], 237 nM; in test [5], 409 nM; in test [6] it was 2170 nM.
As to `CC[C@H](C)[C@H](NC(=O)[C@H](CCCCN)NC(=O)[C@H](CCCCN)NC(=O)[C@H](CS)NC(=O)CNC(=O)[C@H](C)NC(=O)[C@H](Cc1ccccc1)NC(=O)[C@H](CCC(=O)O)NC(=O)[C@@H](N)CCC(N)=O)C(=O)N[C@@H](Cc1ccccc1)C(=O)O`, the half-inhibitory concentration (IC50) turned out to be 53 nM in test [1]; 3690 nM in test [2]; 12 nM in test [3]; 4 nM in test [4]; 3.6 nM in test [5].
In the case of `CC[C@H](C)[C@H](NC(=O)[C@H](CCCCN)NC(=O)[C@H](CCCCN)NC(=O)[C@H](CS)NC(=O)CNC(=O)[C@H](C)NC(=O)[C@H](Cc1ccccc1)NC(=O)[C@H](CCC(=O)O)NC(=O)[C@@H](N)CCC(N)=O)C(=O)N[C@@H](Cc1ccccc1)C(=O)NCC(=O)O`, the half-maximal inhibitory concentration (IC50) in test [3] is 477 nM; in test [4], 37 nM; in test [5] it was 2.1 nM; in test [6], 138 nM.
Turning to `CC(C)C[C@H](NC(=O)[C@H](Cc1ccc(O)cc1)NC(=O)[C@H](CC(N)=O)NC(=O)[C@H](CCC(=O)O)NC(=O)[C@@H](N)CCC(N)=O)C(=O)N[C@@H](CCC(=O)O)C(=O)N[C@@H](Cc1ccc(O)cc1)C(=O)N[C@@H](CCCNC(=N)N)C(=O)N[C@@H](CCC(N)=O)C(=O)N[C@H](C(=O)O)C(C)C`, the IC50 came to 493 nM in test [2]; 102 nM in test [3]; 17 nM in test [4]; 16 nM in test [5]; 27 nM in test [6].
`CC[C@H](C)[C@H](NC(=O)[C@H](C)NC(=O)[C@H](C)NC(=O)[C@H](CCC(N)=O)NC(=O)[C@H](Cc1ccccc1)NC(=O)[C@H](CCC(=O)O)NC(=O)[C@@H](N)CO)C(=O)N[C@@H](CO)C(=O)N[C@@H](CCCNC(=N)N)C(=O)N[C@@H](CCCCN)C(=O)N[C@@H](CCSC)C(=O)O`: the IC50 came to 7 nM in test [1]; 107 nM in test [3]; 88 nM in test [4]; 1.2 nM in test [5]; 161 nM in test [6].
`CC(C)C[C@H](NC(=O)[C@@H]1CCCN1C(=O)[C@H](C)NC(=O)[C@@H](NC(=O)[C@H](Cc1ccc(O)cc1)NC(=O)CNC(=O)[C@H](CC(=O)O)NC(=O)[C@@H](NC(=O)[C@H](CCC(=O)O)NC(=O)[C@@H](N)CO)[C@@H](C)O)C(C)C)C(=O)O`: the IC50 in test [1] was determined as 94 nM; in test [2], 214 nM; in test [3] it was 184 nM; in test [4], 386 nM; in test [5], 2.4 nM; in test [6], 302 nM.
As for `CC[C@H](C)[C@H](NC(=O)CNC(=O)[C@H](Cc1ccccc1)NC(=O)[C@@H](NC(=O)[C@H](CC(C)C)NC(=O)[C@H](CCC(N)=O)NC(=O)[C@H](CC(C)C)NC(=O)[C@H](Cc1ccc(O)cc1)NC(=O)[C@H](CCC(=O)O)NC(=O)[C@@H](N)CO)C(C)C)C(=O)O`, the half-inhibitory concentration (IC50) in test [2] was 20 nM; in test [3], 6.1 nM; in test [4], 3.7 nM; in test [5], 0.84 nM; in test [6] it was 4.4 nM.
For the compound `CC(C)C[C@H](NC(=O)CNC(=O)[C@H](CO)NC(=O)[C@H](CC(N)=O)NC(=O)[C@H](CCCCN)NC(=O)[C@H](CCC(=O)O)NC(=O)[C@@H](N)[C@@H](C)O)C(=O)N[C@@H](Cc1ccc(O)cc1)C(=O)O`, the half-maximal inhibitory concentration (IC50) in test [2] was 9850 nM; in test [3], 7120 nM; in test [4], 1870 nM; in test [5], 605 nM; in test [6], 10200 nM.
Consider `CC(C)C[C@H](NC(=O)[C@@H]1CCCN1C(=O)[C@@H]1CCCN1C(=O)[C@H](CCC(=O)O)NC(=O)[C@@H](N)C(C)C)C(=O)N[C@@H](CO)C(=O)N[C@@H](CCC(N)=O)C(=O)N[C@@H](CCC(=O)O)C(=O)N[C@H](C(=O)O)[C@@H](C)O`, for which the IC50 was 17100 nM in test [2], 3190 nM in test [4] and 236 nM in test [5].
As for `CSCC[C@H](NC(=O)[C@H](CC(C)C)NC(=O)[C@H](CCC(=O)O)NC(=O)[C@@H](N)Cc1c[nH]c2ccccc12)C(=O)N[C@H](C(=O)N[C@@H](Cc1ccccc1)C(=O)NCC(=O)N[C@@H](C)C(=O)N[C@@H](CCCCN)C(=O)N1CCC[C@H]1C(=O)N[C@@H](Cc1ccc(O)cc1)C(=O)O)[C@@H](C)O`, the IC50 came to 509 nM in test [2], 778 nM in test [3], 24 nM in test [4] and 75 nM in test [5].
